Results on 7 compounds are retold here after BindingDB's records for patent US10040791 (Daiichi Sankyo Company, Limited, 2018).

Sequences of proteins named here, by UniProt entry; tags and fusion partners are left off. Residues count along the entry.
UniProt O75874, 2-414 R132H limits assumed: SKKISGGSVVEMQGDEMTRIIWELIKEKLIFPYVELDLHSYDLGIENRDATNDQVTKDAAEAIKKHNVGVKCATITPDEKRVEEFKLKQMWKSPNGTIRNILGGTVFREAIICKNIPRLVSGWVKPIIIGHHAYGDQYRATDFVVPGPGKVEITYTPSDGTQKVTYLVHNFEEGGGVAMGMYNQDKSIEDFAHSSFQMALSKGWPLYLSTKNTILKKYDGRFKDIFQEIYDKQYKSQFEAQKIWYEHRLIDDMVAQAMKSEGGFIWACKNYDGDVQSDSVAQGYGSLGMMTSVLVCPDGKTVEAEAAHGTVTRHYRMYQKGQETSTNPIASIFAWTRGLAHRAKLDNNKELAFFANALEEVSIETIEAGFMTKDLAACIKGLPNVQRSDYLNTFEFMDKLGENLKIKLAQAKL

For the assay, the target named is Isocitrate dehydrogenase [NADP] cytoplasmic [R132H] (Homo sapiens, UniProt O75874, R132H). Put plainly: Inhibitory Activity Against IDH1R132H and IDH1R132C Enzymes. To be noted: pH 7.5; 25 °C.
On to `Cc1cn(C(=O)c2c(-c3c(Cl)cc(Cl)cc3Cl)noc2C(F)(F)F)c2cccc(/C=C/C(=O)O)c12` [US10040791, Example 61], for which the IC50 – broadly, the point on the concentration scale where inhibition reaches its midpoint – came to 36 nM.

Consider `Cc1cn(C(=O)c2c(-c3c(Cl)cc(Cl)cc3Cl)noc2C2(C#N)CCC2)c2cccc(/C=C/C(=O)O)c12` [US10040791, Example 93], for which the IC50 was determined as 12 nM. Against the preceding compound, the IC50 is about 3-fold lower.

The compound `Cn1cc(C(=O)c2c(-c3c(Cl)cc(Cl)cc3Cl)noc2C(C)(C)C)c2cccc(/C=C/C(=O)O)c21` [US10040791, Example 164] had an IC50 of 11 nM.

In turn, `NC[C@H]1CCN(c2onc(-c3c(Cl)cccc3Cl)c2C(=O)n2ccc3c(/C=C/C(=O)O)cccc32)C1` [US10040791, Example 139] yielded an IC50 of 183 nM.

For the compound `Cc1cn(C(=O)c2c(-c3ccc(Cl)cc3Cl)noc2C2(C)COC2)c2cccc(/C=C/C(=O)O)c12` [US10040791, Example 78], the IC50 was determined as 33 nM.

`CCC1(c2onc(-c3c(Cl)cccc3Cl)c2C(=O)n2ccc3c(/C=C/C(=O)O)cccc32)COC1` [US10040791, Example 5] came in with an IC50 of 11 nM.

As to `CC(C)(F)c1onc(-c2c(Cl)cc(Cl)cc2Cl)c1C(=O)n1cc(C2CC2)c2c(/C=C/C(=O)O)cccc21` [US10040791, Example 71], the IC50 was 81 nM. This IC50 is about 7.4-fold higher than that of the compound before.
